The results in this text go back to patent US20110008345A1.

What all share (assay): cell-based or functional assay
The target in assay [1] is EGFR expressed on the surface of A431 cells (UniProt P00533).
Assay [2] addresses recombinant human TNF-alpha (human) (UniProt P01375).
The target in assay [3] is recombinant E. coli-expressed human IL-13 (human) (UniProt P35225).

Substance “dual targeting anti-TNF/anti-EGFR mAbdAb (Example 10) (bispecific antibody)” had an Anti-EGFR potency (EGFR kinase assay, A431 cells) in assay [1] of 39.1 nM. Besides, the potency (MRC-5/TNF assay, IL-8 secretion) in assay [2] is 0.003 nM.

As to “DMS4029 (anti-EGFR/anti-IL-13 mAbdAb) (bispecific antibody)”, the EC50 (IL-13 cell-based neutralisation assay, HEK Blue-STAT6) in assay [3] was 1.65 nM. Besides, the Anti-EGFR potency (EGFR kinase assay) in assay [1] stood at 9.03 nM.
